According to patent publication US9133260B2 (priority 2005, dated 2015):
Read-outs that look alike come from different tables or passages of the source.

Sequences of proteins named here, by UniProt entry; tags and fusion partners are left off. Residues count along the entry.
UniProt O60894, 27-148: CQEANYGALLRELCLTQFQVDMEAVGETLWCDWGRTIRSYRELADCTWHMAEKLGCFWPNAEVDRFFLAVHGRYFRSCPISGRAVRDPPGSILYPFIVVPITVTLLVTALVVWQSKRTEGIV
UniProt Q16602, 23-461: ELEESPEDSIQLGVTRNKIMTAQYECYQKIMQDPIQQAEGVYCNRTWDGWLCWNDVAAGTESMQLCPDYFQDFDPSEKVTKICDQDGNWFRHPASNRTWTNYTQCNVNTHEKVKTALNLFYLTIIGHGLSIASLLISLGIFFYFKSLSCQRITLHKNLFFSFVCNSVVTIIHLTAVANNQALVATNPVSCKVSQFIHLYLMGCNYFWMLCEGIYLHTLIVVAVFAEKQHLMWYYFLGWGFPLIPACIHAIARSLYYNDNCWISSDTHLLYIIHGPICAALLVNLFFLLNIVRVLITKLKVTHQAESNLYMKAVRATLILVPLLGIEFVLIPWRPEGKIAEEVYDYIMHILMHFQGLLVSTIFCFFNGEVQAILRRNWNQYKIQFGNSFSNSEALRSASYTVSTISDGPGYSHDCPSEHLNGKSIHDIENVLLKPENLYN

Experiments:
[1] = target: T1, GIP Receptor (Homo sapiens, UniProt P48546); assay: Cyclase (GIP Receptor activation); assay type: biochemical; details: unit inferred
T1 sequence (P48546 22-466): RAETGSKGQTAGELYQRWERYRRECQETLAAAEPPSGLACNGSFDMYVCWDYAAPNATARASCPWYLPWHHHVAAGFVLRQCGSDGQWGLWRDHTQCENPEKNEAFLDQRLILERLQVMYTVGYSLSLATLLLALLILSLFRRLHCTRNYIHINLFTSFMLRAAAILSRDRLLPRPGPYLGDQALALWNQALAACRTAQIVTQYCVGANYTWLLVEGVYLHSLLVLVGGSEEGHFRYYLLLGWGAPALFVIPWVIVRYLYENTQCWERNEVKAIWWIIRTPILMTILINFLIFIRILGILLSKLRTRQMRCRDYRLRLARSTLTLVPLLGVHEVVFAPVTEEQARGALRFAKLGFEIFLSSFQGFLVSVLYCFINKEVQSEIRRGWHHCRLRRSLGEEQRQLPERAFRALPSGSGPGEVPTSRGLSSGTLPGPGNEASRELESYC

[2] = Protease resistance in RINm5F cell membrane extracts; assay type: in vitro ADME; details: 37° C., 6 hr, LC-MS
[3] = Stability in human plasma; assay type: in vitro ADME
[4] = target: T1, GIP Receptor; assay type: binding
[5] = target: T2, CGRP receptors (Homo sapiens, UniProt O60894+Q16602); assay: CGRP receptor binding assay (CGRP RBA), SK-N-MC cell membranes; details: table of GIP/amylin-sCT hybrids; unit inferred
T2 construct: membranes prepared from SK-N-MC cells, known to express CGRP receptors; endogenous in cells; host or cells: SK-N-MC cell membranes

[6] = target: relevant receptors; assay: Cyclase, table of GIP/amylin-sCT hybrids; assay type: biochemical; details: receptor and unit inferred
[7] = target: T3, GLP-1 receptor (Rattus norvegicus, UniProt P32301); assay type: binding; details: read-out: GLP RBA
T3 construct: the receptor source is RINm5F cell membranes; endogenous in cells; host or cells: RINm5F cell membranes
T3 sequence (P32301 22-463): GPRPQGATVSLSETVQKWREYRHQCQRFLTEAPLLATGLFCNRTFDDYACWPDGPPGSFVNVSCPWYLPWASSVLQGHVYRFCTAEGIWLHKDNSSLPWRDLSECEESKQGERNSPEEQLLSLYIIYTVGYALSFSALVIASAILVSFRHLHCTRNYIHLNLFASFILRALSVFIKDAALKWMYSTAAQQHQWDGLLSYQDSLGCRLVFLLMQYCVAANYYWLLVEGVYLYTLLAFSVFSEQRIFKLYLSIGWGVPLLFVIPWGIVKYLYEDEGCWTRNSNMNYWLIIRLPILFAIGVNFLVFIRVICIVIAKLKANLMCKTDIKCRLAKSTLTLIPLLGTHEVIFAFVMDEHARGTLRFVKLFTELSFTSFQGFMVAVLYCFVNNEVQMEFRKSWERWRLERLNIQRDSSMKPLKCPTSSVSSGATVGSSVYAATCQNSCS

[8] = target: T4, amylin receptors (Rattus norvegicus, UniProt P32214); details: read-out: AMY RBA; table of GIP/amylin-sCT hybrids; unit inferred
T4 sequence (P32214 25-516): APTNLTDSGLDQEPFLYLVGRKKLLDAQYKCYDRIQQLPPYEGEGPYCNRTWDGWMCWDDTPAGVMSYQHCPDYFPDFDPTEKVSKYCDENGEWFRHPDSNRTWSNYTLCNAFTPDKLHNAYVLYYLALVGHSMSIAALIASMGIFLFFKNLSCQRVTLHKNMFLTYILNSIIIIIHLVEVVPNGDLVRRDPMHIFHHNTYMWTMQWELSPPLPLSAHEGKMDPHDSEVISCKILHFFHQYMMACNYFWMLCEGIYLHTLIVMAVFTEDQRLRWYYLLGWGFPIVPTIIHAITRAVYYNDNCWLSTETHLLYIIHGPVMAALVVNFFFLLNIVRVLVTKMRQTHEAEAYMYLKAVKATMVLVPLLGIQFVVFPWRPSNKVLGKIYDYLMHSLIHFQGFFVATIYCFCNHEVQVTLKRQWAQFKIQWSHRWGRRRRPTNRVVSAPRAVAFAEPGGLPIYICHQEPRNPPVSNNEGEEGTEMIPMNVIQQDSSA
T4 sequence (Q9JJ74 27-148 partner): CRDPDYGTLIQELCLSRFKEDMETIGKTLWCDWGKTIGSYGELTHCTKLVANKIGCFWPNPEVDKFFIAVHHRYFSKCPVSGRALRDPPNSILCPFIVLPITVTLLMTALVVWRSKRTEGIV

**Q.** For “YaEGTFISDYSIAMDG(Oct)IHQQDFVNWLLAQKPSSGAPPPS-NH2 [Compound 0601GIP4194]”, which EC50 [1] is on record?
**A.** 933 nM

**Q.** Which results are given for “YaEGTFISDYSIAMDKIHQQDFVNWLLAQKPSSGAPPPS-NH2 [Compound 0601GIP3794]”?
**A.** stability against RINm5F cell membrane extracts [2]: more stable; plasma stability, comparison in words [3]: more stable than exendin-4

**Q.** Which IC50 ([4]; list, read-out: GIP Receptor binding activity) does the source give for “YaEGTFISDYSIAMDKIHQQDFVNWLLAQKPKKIRYS-NH2 [Compound 0601GIP4233]” here?
**A.** 0.1 nM

**Q.** For “HAEGTFTSDVSSYLEGQAALEFIAWLVKGR [Compound 4]”, which IC50 [5] is on record?
**A.** 110 nM

**Q.** And the EC50 [6]?
**A.** 215 nM

**Q.** And the IC50 [7]?
**A.** 664 nM

**Q.** What about the IC50 ([4]; read-out: GIP RBA) of the same substance?
**A.** 0.13 nM

**Q.** What about the IC50 [8] of the same substance?
**A.** 0.3 nM

**Q.** Which IC50 ([4]; read-out: GIP RBA) does the source give for “YAEGTFISDYSIAMDKIHQQDFVNWLLAQKPSSGAPPPS [Compound 1]” here?
**A.** 3.8 nM

**Q.** Which EC50 [1] does the source give for “YaEGTFISDYSIAMDKIHQQDFVNWLLAQK-bAlabAla-PSSGAPPPS-NH2 [Compound 0601GIP4179]” here?
**A.** 56 nM
